Laboratory results from ChEMBL document CHEMBL3286325, “Synthesis and evaluation of three structurally related ¹⁸F-labeled orvinols of different intrinsic activities: 6-O-[¹⁸F]fluoroethyl-diprenorphine ([¹⁸F]FDPN), 6-O-[¹⁸F]fluoroethyl-buprenorphine ([¹⁸F]FBPN), and 6-O-[¹⁸F]fluoroethyl-phenethyl-orvinol ([¹⁸F]FPEO)” (2014).

The chains behind the UniProt entries cited, without tags or fusion partners.
UniProt P41143, whole entry: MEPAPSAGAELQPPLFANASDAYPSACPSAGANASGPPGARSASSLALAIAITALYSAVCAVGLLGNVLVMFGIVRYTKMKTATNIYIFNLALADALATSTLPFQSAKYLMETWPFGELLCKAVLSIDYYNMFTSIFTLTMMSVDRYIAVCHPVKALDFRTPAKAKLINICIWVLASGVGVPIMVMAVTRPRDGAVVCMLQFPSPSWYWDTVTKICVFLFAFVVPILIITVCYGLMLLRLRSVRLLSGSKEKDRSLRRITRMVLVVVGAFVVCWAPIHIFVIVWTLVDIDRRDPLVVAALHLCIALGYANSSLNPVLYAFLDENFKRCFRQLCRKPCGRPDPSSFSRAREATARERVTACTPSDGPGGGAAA
UniProt P35372, whole entry: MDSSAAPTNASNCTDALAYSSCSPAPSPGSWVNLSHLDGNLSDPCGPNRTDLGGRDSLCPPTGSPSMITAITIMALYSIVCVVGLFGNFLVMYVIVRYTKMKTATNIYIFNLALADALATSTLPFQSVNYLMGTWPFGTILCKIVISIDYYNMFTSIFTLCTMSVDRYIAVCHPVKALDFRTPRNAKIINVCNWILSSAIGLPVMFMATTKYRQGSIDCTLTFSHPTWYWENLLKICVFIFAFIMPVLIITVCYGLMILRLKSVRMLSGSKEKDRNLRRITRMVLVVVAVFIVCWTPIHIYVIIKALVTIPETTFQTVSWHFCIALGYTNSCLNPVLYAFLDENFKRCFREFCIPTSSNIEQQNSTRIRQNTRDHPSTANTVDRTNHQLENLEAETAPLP
UniProt P41145, whole entry: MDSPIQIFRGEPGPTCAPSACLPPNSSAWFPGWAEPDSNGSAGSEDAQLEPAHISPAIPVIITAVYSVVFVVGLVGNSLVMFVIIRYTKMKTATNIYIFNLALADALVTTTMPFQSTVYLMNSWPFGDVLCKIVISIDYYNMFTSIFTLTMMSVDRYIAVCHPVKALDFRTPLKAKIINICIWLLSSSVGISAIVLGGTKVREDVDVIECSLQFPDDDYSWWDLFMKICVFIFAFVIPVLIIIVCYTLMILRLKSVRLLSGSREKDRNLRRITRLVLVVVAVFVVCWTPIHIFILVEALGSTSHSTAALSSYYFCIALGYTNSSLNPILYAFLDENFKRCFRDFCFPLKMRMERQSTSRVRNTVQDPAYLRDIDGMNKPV

Tests used:
[1] = biological target: Delta-type opioid receptor (Homo sapiens) (UniProt P41143); assay: Agonist activity at human cloned delta opioid receptor expressed in CHO cells assessed as stimulation of [35S]GTPgammaS binding at 1 nM relative to DPDPE
[2] = biological target: Mu-type opioid receptor (Homo sapiens) (UniProt P35372); assay: Agonist activity at human cloned mu opioid receptor expressed in CHO cells assessed as stimulation of [35S]GTPgammaS binding at 1 nM relative to DAMGO
[3] = biological target: Kappa-type opioid receptor (Homo sapiens) (UniProt P41145); assay: Agonist activity at human cloned kappa opioid receptor expressed in HEK293 cells assessed as stimulation of [35S]GTPgammaS binding at 1 nM relative to U69593

Compound	Activity [1]	Activity [2]	Activity [3]
CC(C)(O)[C@H]1C[C@@]23CC[C@@]1(OCCF)[C@@H]1Oc4c(O)ccc5c4[C@@]12CCN(CC1CC1)[C@@H]3C5	22%	12%	70%
CN1CC[C@]23c4c5ccc(O)c4O[C@H]2[C@]2(OCCF)C=C[C@@]3(C[C@@H]2[C@@](C)(O)CCc2ccccc2)[C@H]1C5	92%		95%
CC(C)(C)[C@@](C)(O)[C@H]1C[C@@]23CC[C@]1(OCCF)[C@@H]1Oc4c(O)ccc5c4[C@@]12CCN(CC1CC1)[C@@H]3C5	9%	55%	43%
